Assay results published in ChEMBL document CHEMBL1149313, “Synthesis of classical, three-carbon-bridged 5-substituted furo[2,3-d]pyrimidine and 6-substituted pyrrolo[2,3-d]pyrimidine analogues as antifolates” (J Med Chem, 2004).

Sequences of proteins named here, by UniProt entry; tags and fusion partners are left off.
UniProt C3SWJ7, whole entry: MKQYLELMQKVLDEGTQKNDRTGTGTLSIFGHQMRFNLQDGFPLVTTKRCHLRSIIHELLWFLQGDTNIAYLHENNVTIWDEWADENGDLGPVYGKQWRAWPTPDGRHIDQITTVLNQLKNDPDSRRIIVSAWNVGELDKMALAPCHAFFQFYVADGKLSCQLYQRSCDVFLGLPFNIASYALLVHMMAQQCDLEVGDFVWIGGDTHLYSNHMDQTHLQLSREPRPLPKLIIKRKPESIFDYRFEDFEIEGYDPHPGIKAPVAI

Molecular target: Thymidylate synthase (Escherichia coli, UniProt C3SWJ7)
Test: Inhibition of Escherichia coli thymidylate synthase

In the case of `Nc1nc2[nH]cc(CCc3ccc(C(=O)N[C@@H](CCC(=O)O)C(=O)O)cc3)c2c(=O)[nH]1` [PEMETREXED], the IC50 is reported as 38 µM.
